Values quoted from earlier work as cited in patent US20210169883A1, “METHOD OF TREATING AGGRESSION WITH OREXIN RECEPTOR ANTAGONISTS” (Icahn School of Medicine at Mount Sinai, priority 2018, published 2021).

Conditions: variety of patient populations; cited from earlier work

SMILES: Cc1cc(C)nc(N2CC3CN(C(=O)c4c(F)cccc4-n4nccn4)CC3C2)n1 (stereo not shown) [seltorexant]
- tolerability in patient populations: well tolerated
